In US10646600B2, “HER2 polypeptides useful for imaging and monitoring tumors and cancers” (GE HEALTHCARE LIMITED, priority 2013, dated 2020):

Columns and labels:
[1] = test system: SKOV-3 cells; test: In vitro uptake assay in SKOV-3 cells (blocking, siRNA, drug treatment, specific activity); type: cell-based, human
Description: For siRNA-mediated HER2 knockdown, SKOV-3 cells were transfected with 25 nM scramble control (SCR; Dharmacon, Lafayette, Colo., ON-TARGETplus Non-targeting Pool, Cat. Nr: D-001810-10-05) or HER2-targeting siRNA (Invitrogen ERBB2 Silencer® Select Validated siRNA; Cat. Nr: 4457298) by reverse wet transfection with Lipofectamine RNAiMAX (Invitrogen) according to manufacturer's instructions. 3×10^5 cells were seeded in 12-well plates 48 h prior to uptake experiment. Target knockdown was verified by western blotting on cells that were transfected in parallel.
For all uptake studies in response to drug treatment, 2.5×10^5 SKOV-3 cells were seeded in complete medium 48 h prior to uptake experiments. Cells were incubated with indicated doses of NVP-AUY922 (LC Laboratories, Woburn, Mass.) for 24 h and 10 μg/mL trastuzumab (Roche, Basel, Switzerland) for 1 or 24 h prior to addition of radiotracer. […]
Cells were washed with PBS, trypsinized, neutralized with complete medium and centrifuged. […] The radioactivity of 100 μL lysate was counted on a Packard Cobra II gamma counter (Perkin Elmer). Radioactivity was normalized to applied radioactivity and protein content, which was determined for each sample by BCA assay (Pierce, Rockford, Ill.).

[2] = test system: SKOV-3 xenografts; test: PET-CT imaging and kinetic modeling, SKOV-3 xenografts; type: in vivo, mice
Description: […] To assess interaction of radiotracer with trastuzumab, SKOV-3 xenograft-bearing mice were treated with 50 mg/kg trastuzumab intraperitoneally (i.p.) 2 h prior to the scan. Animals were recovered, treated twice more with 25 mg/kg trastuzumab i.p. and re-scanned 7 days after initial dose. To investigate response to HSP90 inhibition, SKOV-3 xenograft-bearing mice were treated with 50 mg/kg NVP-AUY922 or equivalent volume of vehicle (˜5 μL/g body weight; 10% DMSO and 5% Tween-20 in PBS) q.d. i.p. for three days. 24 h after the last treatment, animals were used for PET imaging.
Mice were anesthetized through isoflurane inhalation and scanned on a dedicated small animal PET-CT scanner (Siemens Multimodality Inveon, Erlangen, Germany). Low dose CT scans were first acquired (80 kVp, 0.5 mA, 220 degree rotation, 600 ms per degree exposure time, 80 μm reconstruction pixel size) for PET attenuation correction and to obtain an anatomical reference. PET images were acquired following a bolus i.v. injection of approximately 3.7 MBq [^18F]GE-226 in the tail vein. […] The count densities were averaged for all ROIs at each time point to obtain time versus radioactivity curves (TAC). Tumor TACs were normalized to injected dose measured by a VDC-304 dose calibrator (Veenstra Instruments, Joure, Netherlands) and normalized uptake was expressed as percentage injected dose per mL tissue (NUV; % ID/mL). […]

In the case of “trastuzumab: HER2-targeted antibody (Herceptin, Genentech)”, the “reduction of tracer binding compared to drug-naïve controls” value ([1]; 10 μg/mL trastuzumab for 24 h prior to uptake experiment) is reported as 32±11%, the “effect on tracer binding” value ([1]; 10 μg/mL trastuzumab pre-treatment for 1 h) is reported as “did not alter tracer binding” and the “reduction of Ki” value ([2]; 7 days of continuous trastuzumab treatment) is reported as 24%. For the same substance, the “effect on tumor tracer uptake/retention” value ([2]; trastuzumab 50 mg/kg i.p. 2 h prior to scan, then two doses of 25 mg/kg, re-imaged after 7 days) was “not influenced; also recorded: did not adversely affect tumor tracer retention”.

Entries after “also recorded” stand apart in the source; their conditions may differ.
